The list shows a part of the results, in another mix than the full data. Inconclusive results are not listed. Calls of active or inactive are those of the source. Calls come from the whole dose curve; as a rule, active = well fitted inhibition curve with a large enough effect in the signal ratio, with a control signal flat (not every such curve was filed as active); inconclusive = small, poorly fitted or top-dose-only effect, or effect the other way, or a change in a side signal; inactive = no such curve, though single readings can be large or run the other way; the % refers to the signal ratio.
molecular target: Muscleblind-like protein 1 (Homo sapiens) (UniProt Q9NR56); assay: qHTS Assay for Inhibitors of MBNL1-poly(CUG) RNA binding; settings: TR-FRET MBNL1-His/biotin-(CUG)12 binding, 665/545 ratio; at 57.5 µM (top of the series)
% is set by controls: 0 for no effect and ±100 for the full control effect.

Sequences of proteins named here, by UniProt entry; tags and fusion partners are left off.
UniProt Q9NR56, whole entry: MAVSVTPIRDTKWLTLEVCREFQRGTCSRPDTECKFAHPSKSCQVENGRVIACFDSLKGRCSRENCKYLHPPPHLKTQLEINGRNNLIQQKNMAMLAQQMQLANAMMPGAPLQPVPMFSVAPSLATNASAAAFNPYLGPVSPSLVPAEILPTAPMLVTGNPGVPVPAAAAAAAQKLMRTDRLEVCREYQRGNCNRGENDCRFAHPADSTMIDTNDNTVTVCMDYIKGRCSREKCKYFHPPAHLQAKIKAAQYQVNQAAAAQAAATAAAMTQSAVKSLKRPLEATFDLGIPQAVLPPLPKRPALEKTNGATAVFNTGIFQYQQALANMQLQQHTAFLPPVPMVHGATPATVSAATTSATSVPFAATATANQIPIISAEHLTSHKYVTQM

Row | Compound | activity change, negative = inhibition
1 | NC(=O)Nc1ccc([As](=O)(O)O)cc1 | inactive: 4.49%

From PubChem BioAssay AID2675 (National Center for Advancing Translational Sciences (NCATS), 2010)
